Experiments:
[1] = tested on: bone marrow hematopoietic stem cells; assay: Myeloid skewing in the bone marrow of EAE mice, flow cytometry; conditions: Day 14 and Day 28, Figure 4
Procedure: In this experiment, flow cytometry was used to investigate the myeloid skewing in the bone marrow of mice in each group of the model on days 14 and 28 of the experiment after treatment with compound DC521022.
Preparation of brain tissue single-cell suspension: mice were deeply anesthetized by intraperitoneal injection of tribromoethanol and properly fixed. The left femur of the mice was taken and soaked in ice-cold PBS for later use. The bone marrow of femur of mice was blown into a 15 mL centrifuge tube, centrifuged at 350 G for 5 min, and the supernatant was discarded. 1 mL of erythrocyte lysis buffer was added, and lysis was carried out for 6 min. Then lysis was terminated by adding 5 mL of PBS, and it was centrifuged at 350 G for 5 min, and then resuspended in 1 mL of PBS. Cells were counted.
The following channels were selected for the color matching of fluorescent dyes used in flow cytometry antibody staining: fluorescein isothiocyanate (FITC), Phycoerythrin (PE), PerCP-Cy5.5, allophycocyanin (APC), allophycocyanin-anthocyanin 7 (APC-Cy7), and phycoerythrin-anthocyanin 7 (PE-Cy7). […]
In this experiment, flow cytometry antibody staining was performed using blank control, single positive compensation, isotype control, and fluorescence minus one (FMO) control. […]

[2] = tested on: Autoimmune encephalomyelitis (EAE); assay: Onset of multiple sclerosis in vivo: daily clinical score and weight in the EAE model; conditions: 50 mg/kg daily, intraperitoneal injection or gavage, vs saline control, Figure 1
Procedure: Autoimmune encephalomyelitis (EAE) was an animal model of multiple sclerosis. In this experiment, behavioral scores and weight assessments were performed on two groups of mice daily until the end of the experiment to investigate the effect of compound DC521022 on the onset of multiple sclerosis.
Experimental animals: C57/BL6 mice, 10 weeks old, female, randomly divided into experimental group and control group: model control group (EAE + Vehicle): administered saline after modeling; model administration group (EAE + DC521022): administered DC521022 suspension after modeling. […]
Animal experiment method: mouse polypeptide antigen MOG35-55 (purity>95%) was repeatedly mixed with complete Freund's adjuvant containing inactivated Mycobacterium tuberculosis in a syringe for emulsification to form a water in oil state. […] After the animal experiment was completed, the mice's condition was observed daily, and clinical scoring was performed and recorded. […]
Experimental method: after modeling, DC521022 suspension was immediately administered via intraperitoneal injection and gavage on the day of immunization and the first day of disease onset, respectively. […] Administration was repeated daily, and the mice's condition was observed and clinically scored until Day 14 and Day 28 after modeling. […]

## Cc1nnc(C(C)C)n1[C@@H]1C[C@H]2CC[C@@H](C1)N2CC[C@H](NC(=O)C1CCC(F)(F)CC1)c1ccsc1
[1]
  proportion and quantity of bone marrow hematopoietic stem cells: significantly reduced
[2]
  weight of mice: increased
[2]; EAE mice, score 0-5
  clinical scores: lower

From EP4825379A1, “USE OF 1-(3-AMINOPROPYL) SUBSTITUTED CYCLIC AMINE COMPOUND” (dated 2026)
